Test results as given in patent publication US20210147534A1 (RECEPTA BIOPHARMA S A, published 2021).

B1: Rb9 (peptide)
peptide: CARGETARATFAYWGQGC
modifications: C-terminal amide (NH2); Cys-Cys disulfide bond (C-C), cyclic
notes: Synthetic cyclic peptide derived from the VH CDR3 (H3) of humanized RebMab200; dotted on nitrocellulose in the dot-blot assays; also called Rb9 peptide
B2: Rb10A1 (peptide)
peptide: AARGETARATFAYWGQG
modifications: C-terminal amide (NH2)
notes: Linear peptide; N-terminal Cys of Rb10 replaced by alanine; also called A1C

target: T1, recombinant mouse MIF (mouse, UniProt P34884 2-115); assay: chemiluminescent dot-blotting, peptide on nitrocellulose, recombinant MIF in solution
T1 construct: Bought: R&D Systems in the first dot-blot (25 nM), Abcam in the second dot-blot (50 nM); also called rMIF; recombinant MIF
Protocol: Using the same assay we compared the interaction of the peptides Rb9, Rb10A1, Rb9-MID and vehicle (1% DMSO in dH2O) and recombinant mouse MIF with some modifications. 100 μg of the peptides were dotted on nitrocellulose membranes, blocked and incubated with 50 nM of rMIF (Abcam, Cambridge, UK) overnight at 4° C. Membranes were washed and incubated with primary mouse anti-MIF (R&D, Minneapolis, USA) overnight at 4° C., washed and incubated with the secondary anti-goat IgG-HRP (Sigma-Aldrich, Missouri, USA). The reaction was detected as described above. Graphs represent RLU in dot area quantified using ImageJ software.

| Binder | binding result |
| --- | --- |
| B1 | binds |
| RATFAYWG (C-terminal amide (NH2), also called Rb-MID) [Rb9-MID] | no binding |
| B2 | no binding |
